Test results published in ChEMBL document CHEMBL4028801, “A multifactorial approach to hepatobiliary transporter assessment enables improved therapeutic compound development” (Toxicol Sci, 2013).

By UniProt entry, the sequences of proteins in these tests, tags left out. Where a name states a change or a piece, a line headed by the entry shows the natural chain unless it says otherwise.
UniProt O15439: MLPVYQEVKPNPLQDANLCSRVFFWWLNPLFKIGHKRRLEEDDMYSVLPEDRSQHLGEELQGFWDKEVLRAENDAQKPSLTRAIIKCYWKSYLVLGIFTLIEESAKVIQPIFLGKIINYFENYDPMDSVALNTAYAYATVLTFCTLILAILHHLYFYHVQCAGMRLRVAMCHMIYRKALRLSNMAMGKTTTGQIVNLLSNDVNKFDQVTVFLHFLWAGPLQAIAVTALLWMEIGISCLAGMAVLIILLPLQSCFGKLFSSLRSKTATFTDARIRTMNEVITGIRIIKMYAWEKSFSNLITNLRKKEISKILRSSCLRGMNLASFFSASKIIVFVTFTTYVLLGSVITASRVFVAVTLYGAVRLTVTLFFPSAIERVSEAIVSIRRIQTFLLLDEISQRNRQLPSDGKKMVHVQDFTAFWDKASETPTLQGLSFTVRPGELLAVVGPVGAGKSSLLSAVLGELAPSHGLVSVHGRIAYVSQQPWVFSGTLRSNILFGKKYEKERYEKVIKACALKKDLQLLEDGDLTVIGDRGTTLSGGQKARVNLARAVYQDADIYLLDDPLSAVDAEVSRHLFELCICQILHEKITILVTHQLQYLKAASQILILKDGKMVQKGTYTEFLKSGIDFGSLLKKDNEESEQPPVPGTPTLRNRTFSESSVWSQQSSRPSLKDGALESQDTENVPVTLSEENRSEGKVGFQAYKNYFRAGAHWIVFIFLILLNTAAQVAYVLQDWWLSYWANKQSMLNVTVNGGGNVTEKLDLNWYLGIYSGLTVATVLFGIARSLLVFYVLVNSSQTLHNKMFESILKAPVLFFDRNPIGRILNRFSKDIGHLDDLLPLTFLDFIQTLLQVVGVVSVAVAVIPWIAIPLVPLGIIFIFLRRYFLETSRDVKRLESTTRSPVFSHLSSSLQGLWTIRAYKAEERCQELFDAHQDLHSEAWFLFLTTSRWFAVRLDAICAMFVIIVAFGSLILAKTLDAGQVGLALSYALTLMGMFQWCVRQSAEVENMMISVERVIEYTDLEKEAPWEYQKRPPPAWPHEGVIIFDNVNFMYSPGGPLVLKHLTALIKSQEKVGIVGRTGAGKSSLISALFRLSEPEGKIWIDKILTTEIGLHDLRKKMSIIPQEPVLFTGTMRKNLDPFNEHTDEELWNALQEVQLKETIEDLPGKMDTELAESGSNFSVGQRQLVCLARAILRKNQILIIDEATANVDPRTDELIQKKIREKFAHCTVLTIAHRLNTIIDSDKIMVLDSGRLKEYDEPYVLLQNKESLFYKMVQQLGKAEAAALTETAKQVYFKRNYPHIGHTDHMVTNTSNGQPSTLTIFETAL

Molecular target: ATP-binding cassette sub-family C member 4 (Homo sapiens, UniProt O15439)
Assay type: ADME, cell-based

CN(C)C(=O)CCSC(SCCC(=O)O)c1cccc(/C=C/c2ccc3ccc(Cl)cc3n2)c1 (stereo unspecified) [MK-571]
IC50: 6 µM
